Assay results published in ChEMBL document CHEMBL1149259, “Potent N-(1,3-thiazol-2-yl)pyridin-2-amine vascular endothelial growth factor receptor tyrosine kinase inhibitors with excellent pharmacokinetics and low affinity for the hERG ion channel” (J Med Chem, 2004).

How the values were obtained:
Homo sapiens [1] = species: Homo sapiens; experiment: Selectivity ratio of IC50 for FynT to IC50 for KDR
Homo sapiens [2] = species: Homo sapiens; experiment: Selectivity ratio of IC50 for Lck to IC50 for KDR
Homo sapiens [3] = species: Homo sapiens; experiment: Selectivity ratio of IC50 for Flt3 to IC50 for KDR
Homo sapiens [4] = species: Homo sapiens; experiment: Selectivity ratio of IC50 for CDK2 to IC50 for KDR
Homo sapiens [5] = species: Homo sapiens; experiment: Selectivity ratio of IC50 for CDK4 to IC50 for KDR
Homo sapiens [6] = species: Homo sapiens; experiment: Selectivity ratio of IC50 for InsulinR to IC50 for KDR
Homo sapiens [7] = species: Homo sapiens; experiment: Selectivity ratio of IC50 for EGFR to IC50 for KDR

Ratio IC50 (Homo sapiens [1]): 850 | Ratio IC50 (Homo sapiens [2]): 950 | Ratio IC50 (Homo sapiens [3]): 28 | Ratio IC50 (Homo sapiens [4]): 328 | Ratio IC50 (Homo sapiens [5]): 61 | Ratio IC50 (Homo sapiens [6]): 560 | Ratio IC50 (Homo sapiens [7]): > 1600
Structure (SMILES): CNC(=O)N1CCN(Cc2ccnc(Nc3ncc(C#N)s3)c2)CC1
